Some compounds may have been tested in ways that are not shown here.

Chains of the proteins cited; added tags and fusions are not shown.
UniProt Q9NYV8, whole entry: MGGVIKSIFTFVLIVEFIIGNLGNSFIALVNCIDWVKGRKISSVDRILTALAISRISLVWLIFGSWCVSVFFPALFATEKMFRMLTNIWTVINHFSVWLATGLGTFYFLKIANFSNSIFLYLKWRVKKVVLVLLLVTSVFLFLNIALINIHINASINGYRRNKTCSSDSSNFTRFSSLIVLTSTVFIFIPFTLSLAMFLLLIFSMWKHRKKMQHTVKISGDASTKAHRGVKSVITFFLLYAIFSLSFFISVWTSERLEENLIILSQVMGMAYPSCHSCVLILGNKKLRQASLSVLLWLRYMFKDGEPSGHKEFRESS

The experiment addresses hTAS2R14 (Homo sapiens, UniProt Q9NYV8). As to the kind of experiment: hTAS2R14 ligand screening, FLIPR calcium assay in transfected HEK-293T Gα16gust44 cells. Particulars: conc 524 μM.

As for `O=[N+]([O-])c1cc([N+](=O)[O-])c(O)c([N+](=O)[O-])c1`, the response entry is recorded as “n.r”.

Values taken from patent US8158372B2, “Agonists of a bitter taste receptor and uses thereof” (Deutsches Institut für Ernährungsforschung Potsdam-Rehbrücke, priority 2004, dated 2012).
